The assay concerns the target Nav1.5 (Homo sapiens, UniProt Q14524). Briefly: Electrophysiology, sodium currents in CHO cells stably expressing Nav1.5.

Sequences of proteins named here, by UniProt entry; tags and fusion partners are left off.
UniProt Q14524, whole entry: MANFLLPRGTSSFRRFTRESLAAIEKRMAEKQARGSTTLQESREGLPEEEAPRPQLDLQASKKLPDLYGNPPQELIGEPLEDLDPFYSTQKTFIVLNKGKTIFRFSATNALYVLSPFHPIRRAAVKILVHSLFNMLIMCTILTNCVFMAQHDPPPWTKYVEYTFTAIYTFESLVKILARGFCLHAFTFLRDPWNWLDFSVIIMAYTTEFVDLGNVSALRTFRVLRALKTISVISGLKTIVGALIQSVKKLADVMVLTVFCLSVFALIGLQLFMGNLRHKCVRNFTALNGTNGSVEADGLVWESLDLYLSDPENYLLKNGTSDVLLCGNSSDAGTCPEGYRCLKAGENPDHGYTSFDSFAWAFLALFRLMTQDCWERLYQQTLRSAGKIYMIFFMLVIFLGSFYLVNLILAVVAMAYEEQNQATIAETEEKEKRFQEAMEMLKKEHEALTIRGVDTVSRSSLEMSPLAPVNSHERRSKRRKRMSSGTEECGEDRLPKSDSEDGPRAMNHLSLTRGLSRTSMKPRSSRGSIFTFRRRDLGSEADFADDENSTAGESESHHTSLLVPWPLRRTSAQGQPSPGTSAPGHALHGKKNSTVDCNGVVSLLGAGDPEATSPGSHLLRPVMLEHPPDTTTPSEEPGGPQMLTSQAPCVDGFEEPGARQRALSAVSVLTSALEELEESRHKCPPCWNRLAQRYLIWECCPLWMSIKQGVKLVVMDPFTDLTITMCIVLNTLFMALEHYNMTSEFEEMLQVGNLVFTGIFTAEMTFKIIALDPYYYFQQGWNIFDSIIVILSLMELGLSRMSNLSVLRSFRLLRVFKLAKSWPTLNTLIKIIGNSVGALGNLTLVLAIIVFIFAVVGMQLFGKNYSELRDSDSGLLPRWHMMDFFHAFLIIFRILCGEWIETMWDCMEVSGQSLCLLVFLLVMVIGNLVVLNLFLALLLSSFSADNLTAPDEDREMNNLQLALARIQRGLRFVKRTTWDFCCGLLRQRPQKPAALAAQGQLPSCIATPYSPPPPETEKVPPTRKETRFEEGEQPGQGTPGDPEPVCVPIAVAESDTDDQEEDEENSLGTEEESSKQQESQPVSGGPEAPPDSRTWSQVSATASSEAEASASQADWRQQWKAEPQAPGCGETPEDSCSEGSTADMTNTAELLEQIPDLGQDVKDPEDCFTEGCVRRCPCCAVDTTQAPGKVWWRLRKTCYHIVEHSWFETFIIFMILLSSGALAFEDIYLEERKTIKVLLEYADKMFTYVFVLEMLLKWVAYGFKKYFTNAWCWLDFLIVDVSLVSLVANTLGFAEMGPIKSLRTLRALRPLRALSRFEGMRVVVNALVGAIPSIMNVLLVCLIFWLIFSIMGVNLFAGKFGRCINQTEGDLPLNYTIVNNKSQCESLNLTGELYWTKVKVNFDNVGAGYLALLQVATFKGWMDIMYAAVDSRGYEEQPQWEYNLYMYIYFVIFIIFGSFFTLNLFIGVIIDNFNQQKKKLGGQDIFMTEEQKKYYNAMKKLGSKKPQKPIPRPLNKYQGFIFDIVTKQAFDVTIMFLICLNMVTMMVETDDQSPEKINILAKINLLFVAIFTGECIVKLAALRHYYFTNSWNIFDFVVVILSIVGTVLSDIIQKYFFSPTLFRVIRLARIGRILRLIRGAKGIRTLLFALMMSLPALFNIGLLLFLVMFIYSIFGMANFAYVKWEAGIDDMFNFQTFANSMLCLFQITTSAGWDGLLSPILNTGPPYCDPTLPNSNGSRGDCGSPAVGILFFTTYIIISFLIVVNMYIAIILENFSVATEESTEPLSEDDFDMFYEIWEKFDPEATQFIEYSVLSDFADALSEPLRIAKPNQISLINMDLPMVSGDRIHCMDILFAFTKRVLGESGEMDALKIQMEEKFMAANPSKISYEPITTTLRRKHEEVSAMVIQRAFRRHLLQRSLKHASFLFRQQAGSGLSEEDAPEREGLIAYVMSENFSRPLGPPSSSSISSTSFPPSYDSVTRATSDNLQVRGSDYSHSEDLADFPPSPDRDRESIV

pEC50: −log10 of the molar value.

As usually defined, the pEC50 is the EC50 on a negative log10 scale, so that one unit is a factor of ten. Lower therefore signals a high EC50. Turning to `CCCCCCCC(O)(C(N)=O)c1cccc(Cl)c1` (stereo not shown) [Compound 1], the pEC50 was 4.83.

Source of the values: patent publication US8350076B2, “Sodium channel blockers” (University of Virginia Patent Foundation, priority 2002, dated 2013).
